Results as given in patent US20210277368A1, “COMPOSITIONS AND METHODS FOR TREATMENT OF CHEMICAL WARFARE AGENTS” (published 2021).

The chains behind the UniProt entries cited, without tags or fusion partners. Residues count along the entry.
UniProt P06276, 29-602: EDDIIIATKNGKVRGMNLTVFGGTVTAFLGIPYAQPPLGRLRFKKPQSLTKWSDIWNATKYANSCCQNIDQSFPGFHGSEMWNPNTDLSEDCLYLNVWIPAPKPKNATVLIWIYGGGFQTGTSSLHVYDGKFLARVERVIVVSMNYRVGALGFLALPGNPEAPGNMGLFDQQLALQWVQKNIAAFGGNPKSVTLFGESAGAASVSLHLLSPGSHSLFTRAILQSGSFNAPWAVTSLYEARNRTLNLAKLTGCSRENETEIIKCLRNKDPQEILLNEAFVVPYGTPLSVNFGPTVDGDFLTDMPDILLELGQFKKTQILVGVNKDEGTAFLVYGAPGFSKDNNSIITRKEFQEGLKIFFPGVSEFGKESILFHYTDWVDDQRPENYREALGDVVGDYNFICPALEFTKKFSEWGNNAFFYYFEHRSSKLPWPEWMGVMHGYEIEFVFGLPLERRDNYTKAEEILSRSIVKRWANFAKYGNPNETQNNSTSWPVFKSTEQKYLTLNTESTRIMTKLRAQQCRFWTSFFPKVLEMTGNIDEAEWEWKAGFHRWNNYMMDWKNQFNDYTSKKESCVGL
UniProt P06276, 29-602 Y310N/G311H/T312M/P313L: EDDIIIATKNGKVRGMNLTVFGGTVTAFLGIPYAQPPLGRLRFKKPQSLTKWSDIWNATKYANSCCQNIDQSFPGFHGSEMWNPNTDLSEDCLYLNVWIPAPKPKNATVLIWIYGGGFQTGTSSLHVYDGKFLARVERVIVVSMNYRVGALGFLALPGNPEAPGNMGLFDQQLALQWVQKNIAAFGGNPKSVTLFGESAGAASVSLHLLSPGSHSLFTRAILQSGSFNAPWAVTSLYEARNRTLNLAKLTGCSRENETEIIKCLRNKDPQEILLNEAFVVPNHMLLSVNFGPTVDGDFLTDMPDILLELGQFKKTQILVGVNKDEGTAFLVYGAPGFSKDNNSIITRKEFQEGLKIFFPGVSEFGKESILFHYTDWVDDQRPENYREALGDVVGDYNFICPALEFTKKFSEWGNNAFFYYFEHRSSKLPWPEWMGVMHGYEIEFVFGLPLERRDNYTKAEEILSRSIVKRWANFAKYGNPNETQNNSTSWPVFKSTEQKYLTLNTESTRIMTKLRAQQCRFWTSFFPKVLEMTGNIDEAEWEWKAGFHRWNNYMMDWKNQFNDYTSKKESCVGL

Key:
[1] = biological target: recombinant human WT BChE (wild type; UniProtKB P06276.1) (Homo sapiens, UniProt P06276); assay: Substrate titration; details: 7.8 μM to 10 mM BTC, 10 mM MOPS pH 7.4, 37° C.
[2] = biological target: recombinant human-porcine hybrid BChE (human BChE variant Y282N/G283H/T284M/P285L; YGTP SEQ ID NO: 2 to NHML SEQ ID NO: 4) (Homo sapiens, UniProt P06276, G311H/P313L/T312M/Y310N); assay: Substrate titration; details: 7.8 μM to 10 mM BTC, 10 mM MOPS pH 7.4, 37° C.
[3] = read-out: KM (butyrylthiocholine)

SMILES: CCCC(=O)SCC[N+](C)(C)C.[I-]
- Vmax (butyrylthiocholine) [1]: 20.5
- Vmax (butyrylthiocholine) [2]: 8.78

SMILES: CCCC(=O)SCC[N+](C)(C)C
- Km [1, 3]: 456 µM
- Km [2, 3]: 292 µM
